High-throughput results as filed in PubChem BioAssay.
Sampled rows, rich in hits. Any-hit rate of the full collection: about 2.3%.
Nrf2 block: Nrf2 pathway inhibition | AID 504444 | A549 ARE-Fluc reporter, luciferase luminescence, 18-24 h | Potency, µM (top dose mostly 46 µM), for the others: at the highest dose activity change, negative = inhibition, hits mostly inhibitors | actives 2.1% (n = 360,000); note: potency is the fitted concentration of half-maximal effect; % is set by controls: 0 for no effect and ±100 for the full control effect; nearly all actives have a fitted effect of over 60% in size
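Quantitative HTS in A549 cells stably bearing an antioxidant response element-firefly luciferase construct. Inhibition of Nrf2-driven transcription was scored by luminescence after 18-24 h of compound exposure at 37 °C.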
Mito fusion act: mitochondrial division inhibition or fusion activation; S. cerevisiae fusion-defective mutant growth rescue, CellTiterGlo 48 h; Potency, µM (top dose mostly 46.1 µM), without a hit: at the highest dose growth rescue (activation), usual class: activators; actives 0.23% (n = 320,000); AID 485298; note: potency is the fitted concentration of half-maximal effect; % of control where 0% means no effect; nearly all actives have a fitted effect of over 45% in size
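Read-out: ATP-based luminescence (CellTiterGlo, 10 min ambient) reporting growth of fusion-defective ts yeast after 48 hours at 37C on glycerol/ethanol YPEG medium in the presence of compound.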
miR-21 reporter: miR-21 reporter, rising signal. 340,000 tested, under 10 active. Potency, µM (highest dose often 38.3 µM), for the others: at the highest dose reporter change, positive = more light. HeLa miR-21 FLuc reporter, luciferase, 48 h. AID 2288; active = well fitted rising curve with a large enough effect; inconclusive = small, poorly fitted or top-dose-only effect; inactive = no such curve, though single readings can be large or run the other way;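 further: % of control where 0% means no effect; miR-21 action dims this reporter so a rising signal means less miR-21 action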
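Luminescence from a firefly luciferase reporter carrying a miR-21 binding site downstream, stably expressed under a CMV promoter in HeLa cells that make miR-21 endogenously, reports miRNA modulation after 48 h compound exposure up to approximately 40uM final.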
A549 viability: kills or reduces viability of A549 cells in Nrf2 counter-screen; A549 ARE-Fluc cells, CellTiter-Fluor viability, 18-24 h; Potency, µM (highest dose often 46 µM), for the others: top-dose activity change, negative = cytotoxicity, most hits filed as inhibitors; actives 0.16% (n = 390,000); note: potency is the fitted concentration of half-maximal effect; % is set by controls: 0 for no effect and ±100 for the full control effect
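Cytotoxicity counterscreen: CellTiter-Fluor fluorescence was measured in A549 ARE_Fluc cells after 18-24 h of compound exposure in a concentration series. The subsequent BugLite luminescent read reports ARE-luciferase activity.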
Nrf2 activator: activates Nrf2 signaling; AREc32 ARE-luciferase reporter (MCF7-derived line), luminescence, 24 h; Potency, µM (top dose mostly 46.1 µM), without a hit: at the highest dose activation, most hits filed as activators; actives 0.31% (n = 410,000); note: potency is the fitted concentration of half-maximal effect; % of control where 0% means no effect; nearly all actives have a fitted effect of over 65% in size
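Each well held 1000 AREc32 cells, which were incubated with compound for 24 hr at 37 deg C after overnight attachment, and ARE reporter activity was quantified by firefly luciferase luminescence.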
Numbers without * were called inactive; ? = inconclusive; . = no result given; ! = a repeat was not active; [ ] = another dose, or the depositor's remark. Unless noted, calls come from the whole dose curve; as a rule, active = well fitted curve in the direction sought with a large enough effect; inconclusive = small, poorly fitted or top-dose-only effect, or another doubt; inactive = no such curve, though single readings can be large; an effect the other way counts as inactive or inconclusive.

nr | molecule | Nrf2 block | Mito fusion act | miR-21 reporter
1 | COc1ccc(C(=O)Nc2cccc(-c3nc4ncccc4o3)c2C)cc1OC | 18.4µM* | -2.3% | 0.5%
2 | COc1ccc(C(=O)Nc2ccc(-c3cc4ccccc4oc3=O)c(C)c2)cc1OC | 13µM* | . | 28.8%
3 | COc1cccc(C(=O)Nc2cccc(-c3nc4ncccc4o3)c2C)c1 | ? | 4.2% | -1.6%
4 | CC(=O)c1ccc(-n2nnnc2SCC(=O)Nc2cccc(NC(=O)c3ccco3)c2)cc1 | 23.1µM* | -1.4% | -1.2%
5 | COC(=O)c1cc2oc(C)cc2n1Cc1cc(C)ccc1C | 4.4% | . | -0.2%
6 | NC(=O)N=Nc1c2[nH]c3ccccc3nc-2c2ccccc12 | 10.3µM* | 1.0% | 27.2%
7 | O=C(C1CCCCC1)N1CCN=C1SCc1cccnc1 | ? | -4.5% | -5.7%
8 | O=C(C1CCCCC1)N1CCN=C1SCc1cccc([N+](=O)[O-])c1 | 20.6µM* | -2.0% | 0.2%
9 | Nn1c(Nc2ccccc2)nc2sc3c(c2c1=O)CCC3 | 16.4µM* | 19.0% | -26.3%
10 | CCO/C=N/Nc1nc(C(F)(F)F)nc2c1cnn2Cc1ccccc1 | 23.1µM* | -4.3% | 6.7%
11 | CCC(C)Nc1nc(C)nc2c1oc1ccccc12 (stereo not drawn) | 20.6µM* | 9.7% | 11.0%
12 | CCc1nc(NC(C)C)c2oc3ccccc3c2n1 | -7.1% | 0.7% | -2.4%
13 | COc1ccc(CCNc2oc(Cc3cccc4ccccc34)nc2C#N)cc1OC | 20.6µM* | 23.1% | 6.8%
14 | Cc1nc(NCCc2cnc[nH]2)c2oc3ccccc3c2n1 | 3.1% | 0.8% | -1.9%
15 | COc1ccc(CCNc2nc(C)nc3c2oc2ccccc23)cc1OC | 18.4µM* | 9.6% | 25.4%

nr | A549 viability | Nrf2 activator
1 | ? | 0.3%
2 | -9.4% | 0.0%
3 | -3.4% | -0.9%
4 | -13.3% | 7.0%
5 | 14.2% | 0.4%
6 | ? | 10.3%
7 | -0.1% | 0.2%
8 | -2.0% | 4.4%
9 | -12.7% | 4.2%
10 | -19.4% | -0.2%
11 | 0.8% | 3.7%
12 | -0.5% | 3.3%
13 | -24.6% | -0.6%
14 | 14.6% | 0.2%
15 | ? | 4.1%

Results in Mito fusion act (2 entries from above):
item	Structure	Mito fusion act
14	Cc1nc(NCCc2cnc[nH]2)c2oc3ccccc3c2n1	0.8%
15	COc1ccc(CCNc2nc(C)nc3c2oc2ccccc23)cc1OC	9.6%

Returning to the listing, repeating the three entries before the break.
nr | molecule | Nrf2 block | Mito fusion act | miR-21 reporter
13 | COc1ccc(CCNc2oc(Cc3cccc4ccccc34)nc2C#N)cc1OC | 20.6µM* | 23.1% | 6.8%
14 | Cc1nc(NCCc2cnc[nH]2)c2oc3ccccc3c2n1 | 3.1% | 0.8% | -1.9%
15 | COc1ccc(CCNc2nc(C)nc3c2oc2ccccc23)cc1OC | 18.4µM* | 9.6% | 25.4%
16 | Cc1nc(NC(C)c2ccccc2)c2oc3ccccc3c2n1 (stereo not drawn) | 13µM* | 3.2% | 19.2%
17 | CCC(=O)Nc1ccc2nc(SCCOc3ccc(C)cc3)sc2c1 | 20.5% | . | -13.0%
18 | S=C(NCCCc1cnc[nH]1)NCCCN(CCc1ccccc1)c1ccc(Br)cn1 | 0.0% | . | .
19 | Cc1cc(Nc2ccc(F)cc2)nc(-n2nc(C)cc2C)n1 | . | . | 23.0%
20 | Cc1cc(NC2CCCCC2)nc(-n2nc(C)cc2C)n1 | . | 14.6µM* | .
21 | CCOC(=O)C(CC)Sc1ccc2nnc(-c3ccc(F)cc3)n2n1 (stereo not drawn) | 1.1% | . | .
22 | O=C(NNC(=O)C(c1ccccc1)c1ccccc1)c1ccccn1 | 14.6µM* | -1.0% | 19.3%
23 | CCCCC1(O)CC(C(F)(F)F)=NN1C(=O)COc1ccccc1 (stereo not drawn) | 16.4µM* | ? | 1.1%
24 | Cc1ccc(S(=O)(=O)NCCc2cn3ccsc3n2)c(C)c1 | . | . | -0.3%
25 | COc1cccc(C(=O)NCc2cn3ccccc3n2)c1 | 23.1µM* | . | 18.1%
26 | O=C(NCc1cn2ccccc2n1)c1ccccc1 | 20.1% | -2.0% | -10.6%
27 | Cc1[nH]c(=O)[nH]c1C(=O)CCCCC(=O)O | 10.4% | -5.9% | -10.3%
28 | CSc1ccc(C(=O)c2[nH]c(=O)[nH]c2C)cc1 | -1.2% | 13µM*! | .
29 | Cc1noc(C)c1-c1ccc2ncnc(NCc3ccccc3Cl)c2c1 | -6.5% | . | .
30 | Clc1nc(NCc2cccs2)c2[nH]cnc2n1 | 23.1µM* | . | .

nr | A549 viability | Nrf2 activator
13 | -24.6% | -0.6%
14 | 14.6% | 0.2%
15 | ? | 4.1%
16 | -14.2% | 3.6%
17 | 0.9% | -1.3%
18 | -15.3% | .
19 | -11.8% | -0.4%
20 | . | .
21 | 1.6% | .
22 | ? | 13.0%
23 | ? | 0.0%
24 | -0.1% | 4.7%
25 | -0.6% | 9.2%
26 | 1.1% | 2.5%
27 | 1.1% | -0.5%
28 | -16.0% | 0.0%
29 | 2.1% | .
30 | -2.1% | .

The listing continues:
nr | molecule | Nrf2 block | Mito fusion act | miR-21 reporter
31 | Cn1nnnc1Sc1ncnc2scc(-c3ccc(C(=O)OC(C)(C)C)cc3)c12 | 10.4% | . | .
32 | Cc1cc(C(=O)COC(=O)c2ccccc2O)c(C)n1Cc1cccs1 | 6.51µM* | -2.8% | ?
33 | Cc1cc(C(=O)COC(=O)c2ccc3c(c2)OCO3)c(C)n1Cc1cccs1 | ? | 3.5% | -16.2%
34 | CCn1c(C)cc(C(=O)COC(=O)c2ccccc2[N+](=O)[O-])c1C | 0.731µM* | . | .
35 | C=CCn1c(C)cc(C(=O)COC(=O)c2ccc(N)c([N+](=O)[O-])c2)c1C | ? | 0.3% | -86.6%
36 | CC(=O)N1CCc2c(sc3c2c(=O)n(CCc2ccccc2)c(=O)n3Cc2ccccc2C)C1 | 18.4µM* | . | 20.2%
37 | CC(=O)N1CCc2c(sc3c2c(=O)n(CCc2ccccc2)c(=O)n3Cc2ccc(Cl)cc2)C1 | ? | . | 27.4%
38 | S=C(NCCCc1cnc[nH]1)NCCCN(Cc1ccc(Cl)cc1)c1ccc(Br)cc1 | ? | . | .
39 | Cc1cc(C)c[n+](C(C)C(=O)c2ccc(-c3ccccc3)cc2)c1 (stereo not drawn) | 14.6µM* | -4.1% | 29.3%
40 | Cc1cccc(-n2c(-c3ccco3)nc3c(cnn3-c3ccccc3C)c2=O)c1 | 20.6µM* | . | 10.8%
41 | COc1cccc(-n2c(-c3ccco3)nc3c(cnn3-c3ccc(Cl)cc3)c2=O)c1 | ? | . | -6.1%
42 | Cc1cc(SCC(=O)N/N=C/c2ccc(O)cc2O)c(C)cc1Br | 14.6µM* | -0.6% | 26.2%
43 | C(=C\c1ccccn1)/c1ccccn1 | 25.8% | 8.2% | -47.5%
44 | Clc1ccc(C=Cc2ccccn2)cc1 | ? | . | .
45 | COC(=O)c1ccc2nc(-c3cccc(Br)c3)c(CC3CCCCC3)n2c1 | . | . | .

nr | A549 viability | Nrf2 activator
31 | -1.9% | .
32 | ? | -3.0%
33 | -0.4% | -0.3%
34 | -0.9% | -2.9%
35 | -11.2% | -0.1%
36 | -29.0% | 0.5%
37 | -23.1% | 0.3%
38 | -8.6% | .
39 | -9.7% | -0.4%
40 | -6.0% | 2.1%
41 | 2.3% | 0.5%
42 | -12.1% | 0.9%
43 | -2.7% | 4.8%
44 | 2.9% | 8.91µM*
45 | . | 8.91µM*

The listing continues.
nr | molecule | Nrf2 block | Mito fusion act | miR-21 reporter
46 | C=CCn1c(NC(=O)c2ccc(Br)o2)c(S(=O)(=O)c2ccccc2)c2nc3ccccc3nc21 | ? | 11.2µM* | -4.6%
47 | C=CCn1c(NC(=O)c2ccco2)c(S(=O)(=O)c2ccccc2)c2nc3ccccc3nc21 | . | 5.8% | 1.2%
48 | O=C(c1ccc2c(c1)N(Cc1c(F)cccc1Cl)C(=O)c1ccccc1S2)N1CCCC1 | 10.3µM* | . | 6.0%
49 | Cc1ccc(S(=O)(=O)Cc2ccc(C(=O)NCCc3ccc(Cl)cc3)o2)cc1 | ? | . | 21.6%
50 | Clc1cccc(Cl)c1/C=N\Nc1nccs1 | 11.3% | -1.4% | -0.6%
51 | O=[N+]([O-])c1ccccc1/C=N\Nc1nccs1 | -6.8% | -3.4% | 4.6%
52 | COc1ccc2nc(C(F)(F)Cl)c(C#N)c(N)c2c1 | 20.6µM* | -12.9% | 16.4%
53 | COc1cccc(OCC(=O)NN=C2c3ccccc3-c3ccccc32)c1 | 18.4µM* | 3.8% | -5.7%
54 | O=S(=O)(Nc1cc(O)cc2cccnc12)c1ccc(Br)s1 | 14.3% | . | .

nr | A549 viability | Nrf2 activator
46 | -18.4% | 0.3%
47 | . | .
48 | ? | 3.6%
49 | -18.3% | 4.2%
50 | 0.7% | 10µM*
51 | -23.9% | ?
52 | -3.5% | -0.9%
53 | 1.9%[1.84 µM] | -0.7%
54 | -1.8% | .
